Read-outs that look alike come from different tables or passages of the source.
Settings: FOSA group: Fosamax 10 mg/kg oral

NCCCC(O)(P(=O)(O)O)P(=O)(O)O [FOSA, sodium alendronate]
body weight (1 times per day for 4 weeks, A: after immediately surgical operation): 25.30 ± 1.17 | body weight (B: after 4 weeks of surgical operation): 33.68 ± 2.61 | body weight (C: after immediately administration): 31.56 ± 1.81 | body weight (E: after 2 weeks of administration): 32.86 ± 4.20 | body weight (F: after 4 weeks of administration): 37.02 ± 3.93 | body weight (G: after sacrifice): 31.70 ± 3.73
